Assay results as given in ChEMBL document CHEMBL3400105, “Discovery of novel pyrazolopyrimidinone analogs as potent inhibitors of phosphodiesterase type-5” (Bioorg Med Chem, 2015).

Chains of the proteins cited; added tags and fusions are not shown. Lines headed by an entry give the natural chain unless they say otherwise; changes in a name come on top.
UniProt O00408, whole entry: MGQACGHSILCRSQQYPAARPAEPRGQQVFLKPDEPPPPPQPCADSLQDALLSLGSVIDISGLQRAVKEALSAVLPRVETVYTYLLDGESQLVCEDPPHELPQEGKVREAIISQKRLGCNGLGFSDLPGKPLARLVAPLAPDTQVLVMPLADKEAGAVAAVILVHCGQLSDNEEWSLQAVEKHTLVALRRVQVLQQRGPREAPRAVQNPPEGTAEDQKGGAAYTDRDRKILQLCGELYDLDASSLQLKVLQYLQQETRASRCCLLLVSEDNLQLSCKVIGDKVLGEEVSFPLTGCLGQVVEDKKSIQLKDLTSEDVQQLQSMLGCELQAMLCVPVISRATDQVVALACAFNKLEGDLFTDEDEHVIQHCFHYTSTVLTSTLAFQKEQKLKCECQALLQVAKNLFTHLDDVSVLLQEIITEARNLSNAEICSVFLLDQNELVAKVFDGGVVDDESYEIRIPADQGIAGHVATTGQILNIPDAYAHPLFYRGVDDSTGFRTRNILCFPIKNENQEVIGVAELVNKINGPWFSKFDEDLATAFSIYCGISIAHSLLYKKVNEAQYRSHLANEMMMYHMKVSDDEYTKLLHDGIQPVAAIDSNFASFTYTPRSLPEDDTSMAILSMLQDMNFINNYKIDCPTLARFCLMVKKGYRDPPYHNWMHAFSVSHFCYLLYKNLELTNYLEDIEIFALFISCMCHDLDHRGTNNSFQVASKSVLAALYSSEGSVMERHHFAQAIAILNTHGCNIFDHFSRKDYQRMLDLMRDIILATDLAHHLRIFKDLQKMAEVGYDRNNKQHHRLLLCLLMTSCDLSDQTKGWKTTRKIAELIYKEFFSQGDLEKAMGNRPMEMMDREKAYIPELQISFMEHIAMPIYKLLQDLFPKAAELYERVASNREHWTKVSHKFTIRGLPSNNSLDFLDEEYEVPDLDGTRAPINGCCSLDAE
UniProt O76083: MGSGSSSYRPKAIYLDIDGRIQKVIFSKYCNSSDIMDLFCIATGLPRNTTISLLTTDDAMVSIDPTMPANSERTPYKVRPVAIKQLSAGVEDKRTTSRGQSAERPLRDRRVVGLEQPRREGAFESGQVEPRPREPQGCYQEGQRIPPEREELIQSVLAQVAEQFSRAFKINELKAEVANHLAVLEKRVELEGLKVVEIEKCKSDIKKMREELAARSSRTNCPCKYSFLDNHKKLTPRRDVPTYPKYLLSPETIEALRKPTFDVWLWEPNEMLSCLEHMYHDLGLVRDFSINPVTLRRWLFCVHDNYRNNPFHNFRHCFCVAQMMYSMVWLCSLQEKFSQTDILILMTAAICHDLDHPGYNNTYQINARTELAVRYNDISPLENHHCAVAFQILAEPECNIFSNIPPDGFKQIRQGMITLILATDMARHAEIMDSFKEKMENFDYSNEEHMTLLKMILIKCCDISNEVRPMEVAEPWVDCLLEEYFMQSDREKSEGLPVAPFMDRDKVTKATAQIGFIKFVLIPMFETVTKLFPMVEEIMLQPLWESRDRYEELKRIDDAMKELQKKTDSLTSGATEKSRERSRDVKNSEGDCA

Experiments:
[1] = target: cGMP-dependent 3',5'-cyclic phosphodiesterase (Homo sapiens, UniProt O00408); experiment: Inhibition of PDE2A1 (unknown origin) using fluorescently labeled cAMP substrate by fluorescence polarization assay
[2] = target: High affinity cGMP-specific 3',5'-cyclic phosphodiesterase 9A (Homo sapiens, UniProt O76083); experiment: Inhibition of GST-tagged recombinant human PDE9A2

For CCCc1nn(C)c2c(=O)[nH]c(-c3cc(S(=O)(=O)N4CCN(C)CC4)ccc3OCC)nc12, which IC50 [1] is on record?
Its IC50 is 63 µM.

What about the IC50 [2] of the same molecule?
The IC50 was 3.6 µM.
